Experimental data published in patent US11267861B2, “Peptide-oligourea foldamer compounds and methods of their use” (UREKA SARL, priority 2016, dated 2022).

How the values were obtained:
[1] = biological target: T1, Leucyl aminopeptidase (EC 3.4.11.1) (Sus scrofa, UniProt P28839); assay: Enzymatic degradation by leucyl aminopeptidase; assay type: in vitro ADME, porcine; conditions: compared to the native peptides
T1 construct: from porcine kidney (Sigma); chromatographically purified suspension; purchased Sigma; host or cells: porcine kidney
T1 sequence (P28839 1-519): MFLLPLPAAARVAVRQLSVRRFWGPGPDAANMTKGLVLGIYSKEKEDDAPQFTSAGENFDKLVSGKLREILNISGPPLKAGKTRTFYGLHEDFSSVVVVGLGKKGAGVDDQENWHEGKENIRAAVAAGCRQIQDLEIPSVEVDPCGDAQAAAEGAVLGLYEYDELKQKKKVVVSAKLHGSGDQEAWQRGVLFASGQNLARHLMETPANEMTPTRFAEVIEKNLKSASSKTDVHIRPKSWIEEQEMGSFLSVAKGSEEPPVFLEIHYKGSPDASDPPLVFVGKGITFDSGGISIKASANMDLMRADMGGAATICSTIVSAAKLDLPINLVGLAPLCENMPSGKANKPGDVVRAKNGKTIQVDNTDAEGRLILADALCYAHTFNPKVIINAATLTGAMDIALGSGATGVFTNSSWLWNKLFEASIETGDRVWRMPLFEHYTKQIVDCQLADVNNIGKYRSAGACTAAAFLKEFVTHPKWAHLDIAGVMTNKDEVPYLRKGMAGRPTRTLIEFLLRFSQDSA
Experimental: Enzymatic Degradation—Leucyl Aminopeptidase. Leucyl aminopeptidase (EC 3.4.11.1) from porcine kidney (Sigma); chromatographically purified suspension in 2.9 M (NH4)2SO4, 0.1 M Tris, 5 mM MgCl2 solution, pH 8.0; stock solution in PBS buffer (pH 7.2, 0.01 M). For each degradation experiment, stock solutions of the peptidic substrate and the enzyme were made using phosphate-buffered saline (PBS) buffer solution. […] The pH was adjusted either with NaOH (1 M) or with HCl (1 M) prior to use. A solution of the substrate in PBS buffer (pH 7.2, 0.01 M) and a solution of the required amount of enzyme, were mixed and incubated at 25° C. for 4 hours. Degradation was stopped with concentrated AcOH, and buffer solution was added so that the total volume reached 150 μL.
The resulting mixture was analyzed by reversed-phase HPLC. A mixture of CH3CN/H2O (0.1% TFA) was used as eluent. Gradients were 10% CH3CN to 100% CH3CN in 10 minutes. The flow rate, for all separations, was 1 mL·min^−1.

[2] = biological target: T2, mouse GLP-1 receptor (Mus musculus, UniProt O35659); assay: GLP-1 functional assay: agonist activity by cAMP production (HTRF) in βTC6 cells; assay type: cell-based
T2 construct: mouse GLP-1 receptor endogenously expressed in βTC6 cells; endogenous in cells; host or cells: βTC6 cells
T2 sequence (O35659 22-463): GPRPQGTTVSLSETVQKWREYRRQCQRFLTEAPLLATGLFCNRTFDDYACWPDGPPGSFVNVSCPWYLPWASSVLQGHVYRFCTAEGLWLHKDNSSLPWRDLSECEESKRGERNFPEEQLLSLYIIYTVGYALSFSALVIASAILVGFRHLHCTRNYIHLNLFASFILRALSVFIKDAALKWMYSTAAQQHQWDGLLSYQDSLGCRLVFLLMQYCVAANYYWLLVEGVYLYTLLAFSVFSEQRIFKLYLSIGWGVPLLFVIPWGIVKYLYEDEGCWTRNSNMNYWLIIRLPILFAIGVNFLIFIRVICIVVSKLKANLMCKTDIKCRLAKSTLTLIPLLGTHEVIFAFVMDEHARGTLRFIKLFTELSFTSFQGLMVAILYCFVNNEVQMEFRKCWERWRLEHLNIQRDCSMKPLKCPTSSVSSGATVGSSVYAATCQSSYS
Experimental: For stimulated control measurement, separate assay wells contain 10 nM GLP-1(7-37) were utilized.
Following incubation, the cells were lysed and the fluorescence acceptor (D2-labeled cAMP) and fluorescence donor (anti-cAMP antibody labeled with europium cryptate) were added. […] The results are expressed as a percent of the control response to 10 nM GLP-1(7-37). The standard reference agonist is GLP-1(7-37), which was tested in each experiment at several concentrations to generate a concentration-response curve from which its EC50 value was calculated.
HTRF (Homogeneous Time-Resolved Fluorescence) principle. The HTRF technology is based on time resolved fluorescence energy transfer (TR-FRET), which occurs between long-lived fluorophore Europium or Terbium Cryptates, and EuK or Tb respectively, as a donor and the allophycocyanin XL665, d2 or Red as acceptor. Many compounds and proteins present in biological fluids or serum are naturally fluorescent, and the use of conventional, prompt fluorescence leads to serious limitations in assay sensitivity. The use of long-lived fluorophore combined with time-resolved detection (a delay between excitation and emission detection) minimizes prompt fluorescence interference.

For `CC[C@H](C)[C@H](NC(=O)[C@H](Cc1ccccc1)NC(=O)[C@H](CCC(=O)O)NC(=O)[C@H](CCCCN)NC(=O)[C@H](C)NC(=O)[C@H](C)NC(=O)[C@H](CCC(N)=O)NC(=O)CNC(=O)[C@H](CCC(=O)O)NC(=O)[C@H](CC(C)C)NC(=O)[C@H](Cc1ccc(O)cc1)NC(=O)[C@H](CO)NC(=O)[C@H](CO)NC(=O)[C@@H](NC(=O)[C@H](CC(=O)O)NC(=O)[C@H](CO)NC(=O)[C@@H](NC(=O)[C@H](Cc1ccccc1)NC(=O)[C@@H](NC(=O)CNC(=O)[C@H](CCC(=O)O)NC(=O)NC[C@H](C)NC(=O)[C@@H](N)Cc1c[nH]cn1)[C@@H](C)O)[C@@H](C)O)C(C)C)C(=O)N[C@@H](C)C(=O)N[C@@H](Cc1c[nH]c2ccccc12)C(=O)N[C@@H](CC(C)C)C(=O)N[C@H](C(=O)N[C@@H](CCCCN)C(=O)NCC(=O)N[C@@H](CCCNC(=N)N)C(=O)NCC(=O)O)C(C)C` [Compound 13], which “stability (half-life) with leucyl aminopeptidase compared to native peptides” value [1] is on record?
Its value is “more stable than the native peptides”.

What about the EC50 [2] of the same compound?
Its EC50 is 0.079 nM.
